According to patent US6251919A, “Heterocyclic substituted aniline calcium channel blockers” (Warner-Lambert, priority 1999, dated 2001):

The molecules below were run on male Swiss-Webster mice (assay: Anti-Writhing Test in Mice (AW), acetic acid). Conditions: 10 mg/kg.
Assay type: in vivo
From the text: Anti-Writhing Test in Mice (AW) Test Protocol
The purpose of this test is to evaluate drugs for analgesic-like activity. The AW test determines the effect of drugs on the response to a presumed painful stimulus in mice and is used as a preliminary in vivo procedure for the identification of potential analgesic agents.
Known analgesics with low, moderate, or high efficacy in man allow mice to tolerate intra-peritoneal administration of dilute acetic acid as evidenced by lesser incidence of writhing movements. The AW test measures the nociceptive response to acetic acid in mice and provides an objective, reliable, and quantitative estimate of efficacy and potency of potential analgesic compounds. This test serves as a preclinical predictor of analgesic activity.
Subjects are male Swiss-Webster mice (25-35 g).
Compounds are dissolved or suspended in physiological saline containing 2% Emulphor. Suspensions are subjected to ultrasonication for 3 minutes. Drug doses are expressed as the active moiety and are normally administered to mice (10, 30, and 100 mg/kg IP, SC, PO, or IM) in a volume of 10 mL/kg, 1 hour prior to testing; ICV doses (in μg/kg) are administered in a volume of 0.5 mL/kg, 5 minutes prior to testing. Animals dosed PO are fasted for 16 hours prior to dosing. Groups of eight mice are tested with each dose or the vehicle solution (control group).
Mice are treated with a dilute solution of acetic acid (0.6%, 10 mL/kg IP) which elicits writhing. In four successive trials, one pair of mice from each treatment group is placed in one of four adjacent clear plexiglas chambers (4 in×4 in×4 in). This allows the simultaneous observation of four pairs of mice representing all treatments and controls throughout the test. Writhing movements (abdominal contractions, stretching of the torso and hind legs, and concave arching of the back) are counted for 5 minutes commencing 7 minutes after acetic acid administration.
Drug effects on acetic acid-induced writhing are expressed as percent suppression of writhing relative to the vehicle-treated control group run in parallel with treated animals. The writhing tallies from pairs of animals are summed for each treatment and are divided by the summed writhing in the control group. The ED50 s for suppression of writhing are determined by nonlinear regression analysis.
`CC(C)=CCN(c1ccc(OCc2ccccc2)cc1)C1CCN(CCC(C)(C)C)CC1` [Example 2, (4-Benzyloxy-phenyl)-[1-(3,3-dimethyl-butyl)-piperidin-4-yl]-(3-methyl-but-2-enyl)-amine] was tested, and the “Anti-Writhing % Protection” value was 49%.
With `CC(C)=CCN(c1ccc(OCc2ccccc2)cc1)C1CCN(Cc2ccccc2)CC1` [Example 19, (4-Benzyloxy-phenyl)-(1-benzyl-piperidin4-yl)-(3-methyl-but-2-enyl)-amine] the “Anti-Writhing % Protection” value was 32%.
For `CC(C)=CCN(c1ccc(C(C)C)cc1)C1CCN(CCC(C)(C)C)CC1` [Example 26, [1-(3,3-Dimethyl-butyl)-piperidin-4-yl]-(4-isopropyl-phenyl)-(3-methyl-but-2-enyl)-amine], the “Anti-Writhing % Protection” value was 11%.
`CC(C)=CCN(c1ccc(CCC(C)(C)C)cc1)C1CCN(Cc2ccc(N(C)C)cc2)CC1` [Example 39, [1-(4-Dimethylamino-benzyl)-piperidin-4-yl]-[4-(3,3-dimethyl-butyl)-phenyl]-(3-methyl-but-2-enyl)-amine] was tested, and the “Anti-Writhing % Protection” value was 95%.
In the case of `CC(C)CCN(c1ccc(OCC2CCCCC2)cc1)C1CCN(CCC(C)(C)C)CC1` [Example 42, (4-Cyclohexylmethoxy-phenyl)-[1-(3,3-dimethyl-butyl)-piperidin-4-yl]-(3-methyl-butyl)-amine], the “Anti-Writhing % Protection” value is reported as 6.5%.
